Rows were chosen to be rich in hits. Some 2.2% of all compounds tested hit in one or more screens of this group.
FGF22 binding – FGF22 (human) thermal shift binding | recombinant FGF22 thermal shift, SYPRO orange fluorescence; percent of sucrose octasulfate shift, DMSO zero | actives 1.5% (n = 340,000) | activity (Tm shift, normalised), % at 9.99 µM | Q9HCT0 | AID 651658;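 active = mean Tm shift, scaled 0 neutral to 100 positive control, at about 1.3% or above, every replicate too, limit read from the data; inconclusive = no clear call, values can overlap the other calls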
SIRT5 inh – inhibitors of human sirtuin-5 desuccinylase | Q9NXA8 | Purified SirT5, succinyl-peptide AMC, trypsin-coupled fluorescence | inhibition, % at 15 µM | actives 1.1% (n = 330,000) | AID 652115; in the data active = inhibition above about 15%; inconclusive = no clear call, values can overlap the other calls
UUG fidelity – modulators of start codon recognition fidelity in yeast. S. cerevisiae UUG-firefly luciferase reporter, luminescence/redox ratio. activity score, % at 18.7 µM. 0.13% of 350,000 active. AID 602363;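 active = replicate mean at a twofold rise or more, about +100% in these data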;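 also: firefly luciferase made from a UUG start codon reports start codon fidelity; reporter light over untreated wells divided by growth signal over untreated wells; some hits fall short of that in this replicate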
S100A4 inh HTS – inhibitors of human S100A4 binding to myosin IIA peptide; P26447; inhibition, % at 10.7 µM; actives 0.14% (n = 360,000); S100A4/TAMRA-MyoIIA peptide fluorescence polarization;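 active = mean inhibition of at least 70% across replicates, with every replicate also reaching that level; inconclusive = mean inhibition reaches 70% but some replicates fall short; inactive = mean inhibition below 70%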
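Test system: S100A4 monomer protein; Medium: HEPES pH 7.2 with CaCl2, KCl, NaCl, DTT, Triton; Probe or stimulus: TAMRA-labelled myosin IIA heavy-chain peptide probe, 5 nM; Doses: one dose per compound; Times: polarization read 5 min after assay mix addition, stable 5–60 min; Benchmarks: neutral control DMSO, positive control TFP.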
ERp5 inh – ERp5 (human) disulfide isomerase inhibition; actives 0.05% (n = 350,000); ERp5 insulin aggregation, absorbance 650 nm, 90 min; inhibition, % at 9.99 µM; Q15084;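 active = mean replicate inhibition above about 25%, with every replicate also reaching it, limit read from the data, passing the limit was not always enough; inconclusive = only one of those two criteria met; inactive = neither criterion met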
PDI inh – blocks human protein disulfide isomerase activity; P07237; inhibition, % at 10 µM; actives 0.052% (n = 350,000); PDI insulin aggregation turbidity, A650, 90 min; AID 588391;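 active = mean inhibition across replicates of 30% or more, whatever share of single replicates reach that level; inconclusive = mean inhibition below 30% while every single replicate reaches 30%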
* marks the source's active call; other numbers are inactive results.

Results for CCC(=O)Nc1ccc(C(=O)Nc2ccc(Br)cc2F)cc1 ?
FGF22 binding: 43.5*; SIRT5 inh: -1.2; UUG fidelity: -18.8; S100A4 inh HTS: -9.2; ERp5 inh: -0.9; PDI inh: 13.1

What do the screens show for `O=C(Nc1ccc(Br)cc1F)c1ccc2c(c1)OCCO2`?
FGF22 binding: -0.2; SIRT5 inh: 0.2; UUG fidelity: -27.8; S100A4 inh HTS: -9.5; ERp5 inh: 1.6; PDI inh: 3.0

What do the screens show for `CO[C@H]1CN(C)C(=O)c2ccc(NC(C)=O)cc2OC[C@H](C)N(Cc2ccccc2F)C[C@H]1C`?
FGF22 binding: -0.1; SIRT5 inh: 6.9; S100A4 inh HTS: -8.5; ERp5 inh: -4.7

What do the screens show for `N#C[C@@H]1[C@H](c2ccccc2-c2cccc(F)c2)[C@H](CO)N1C(=O)C1CCCC1`?
SIRT5 inh: -6.7; S100A4 inh HTS: 1.4; ERp5 inh: -0.1

How did CO[C@H]1CC[C@H]2CCOc3ccc(C#N)cc3C(=O)N(C)CCCC(=O)N(C)C[C@@H]1O2 do in these assays?
FGF22 binding: -0.2; SIRT5 inh: -1.4; S100A4 inh HTS: -7.4; ERp5 inh: 0.6

What do the screens show for `Cc1nc(N)nc(N)c1CCCc1ccc(Cl)c(Cl)c1`?
FGF22 binding: 0.0; SIRT5 inh: 15.0*; UUG fidelity: -17.6; S100A4 inh HTS: -2.2; ERp5 inh: 4.8; PDI inh: 2.0

Results for COc1cccc(CN2CC3(CCN(Cc4ccccn4)CC3)c3c([nH]c4cc(OC)ccc34)[C@@H]2CO)c1 ?
SIRT5 inh: -2.7; S100A4 inh HTS: 6.9; ERp5 inh: -0.8

What do the screens show for `CNC[C@H]1OCCCC[C@@H](C)Oc2ccc(NC(=O)Nc3ccccc3)cc2C(=O)N([C@H](C)CO)C[C@H]1C`?
FGF22 binding: -0.5; SIRT5 inh: -3.4; UUG fidelity: 22.1; S100A4 inh HTS: -5.6; ERp5 inh: 0.3

What do the screens show for `COc1ccc(NC(=O)Cn2nnc(C(=O)Nc3ccc(F)c(Cl)c3)c2N)cc1`?
FGF22 binding: -0.1; SIRT5 inh: 15.5*; UUG fidelity: -21.0; S100A4 inh HTS: -2.2; ERp5 inh: 0.7; PDI inh: -5.4

What do the screens show for `Cc1ccc(NC(=O)Cn2nnc(C(=O)Nc3ccc(F)c(Cl)c3)c2N)cc1`?
FGF22 binding: 0.0; SIRT5 inh: -1.3; UUG fidelity: -12.8; S100A4 inh HTS: 2.0; PDI inh: -9.7

Results for COc1ccc(NC(=O)Cn2nnc(C(=O)Nc3ccccc3C)c2N)cc1 ?
FGF22 binding: 43.5*; SIRT5 inh: 0.7; S100A4 inh HTS: -1.2; ERp5 inh: 7.6; PDI inh: 0.8

Results for COc1cccc(S(=O)(=O)N(C)C[C@@H]2Oc3cc(C4=CCCC4)ccc3S(=O)(=O)N([C@@H](C)CO)C[C@H]2C)c1 ?
FGF22 binding: -0.4; SIRT5 inh: 1.9; UUG fidelity: -0.9; S100A4 inh HTS: -4.9; ERp5 inh: -1.3

How did CCNC(=O)C[C@@H]1CC[C@@H]2[C@H](COC[C@@H](O)CN2Cc2ccc(Cl)c(Cl)c2)O1 do in these assays?
FGF22 binding: -0.1; SIRT5 inh: -10.4; UUG fidelity: -4.7; S100A4 inh HTS: -4.6; ERp5 inh: -18.7

What do the screens show for `C[C@@H](O)C#Cc1cnc2c(c1)C(=O)N([C@@H](C)CO)C[C@H](C)[C@@H](CN(C)CC1CCOCC1)O2`?
FGF22 binding: 0.0; SIRT5 inh: 5.0; S100A4 inh HTS: 3.0; ERp5 inh: inconclusive

What do the screens show for `CCS(=O)(=O)N1CCCCN2[C@H](CO)[C@H](c3ccc(C4=CCCC4)cc3)[C@H]2C1`?
FGF22 binding: 1.2; SIRT5 inh: -1.7; UUG fidelity: -0.9; S100A4 inh HTS: -6.4; ERp5 inh: -3.7

How did CCCCN(C=O)c1c(CC)nc2ccc(C(=O)N3CCCCC3)cn12 do in these assays?
FGF22 binding: 0.0; SIRT5 inh: 44.5*; UUG fidelity: -7.3; S100A4 inh HTS: 10.0; ERp5 inh: 2.9; PDI inh: -16.1

What do the screens show for `C[C@H](CO)N1C[C@H](C)[C@H](CN(C)Cc2ccc(C(F)(F)F)cc2)Oc2ccc(NS(=O)(=O)c3ccc(Cl)cc3)cc2CC1=O`?
FGF22 binding: -0.3; SIRT5 inh: -2.9; UUG fidelity: 1.2; S100A4 inh HTS: 4.8; ERp5 inh: 3.7

How did O=C1c2cccc3c(N4CCCCC4)ccc(c23)C(=O)N1c1cccc(O)c1 do in these assays?
FGF22 binding: 43.7*; SIRT5 inh: -3.0; S100A4 inh HTS: 61.9; ERp5 inh: 1.9; PDI inh: 19.5

How did CCO[C@@H]1OC(C(=O)NCc2nc3ccccc3[nH]2)=C[C@H](c2csc3ccccc23)[C@H]1CCCO do in these assays?
FGF22 binding: 0.1; SIRT5 inh: 30.6*; UUG fidelity: -20.3; S100A4 inh HTS: -0.9; ERp5 inh: 6.5; PDI inh: 9.2

How did CCO[C@H]1OC(C(=O)NCc2nc3ccccc3[nH]2)=C[C@@H](c2csc3ccccc23)[C@@H]1CCCO do in these assays?
FGF22 binding: 0.0; SIRT5 inh: -0.9; UUG fidelity: 9.4; S100A4 inh HTS: 0.6; ERp5 inh: 2.5; PDI inh: 3.9

Results for CN(Cc1ccccc1F)C(=O)c1ccc(NS(=O)(=O)c2ccc3[nH]c(=O)[nH]c3c2)cc1 ?
FGF22 binding: 0.0; SIRT5 inh: 30.7*; UUG fidelity: -1.4; S100A4 inh HTS: 0.4; ERp5 inh: 2.5; PDI inh: -6.0

Results for CCOc1ccccc1NS(=O)(=O)c1ccc2[nH]c(=O)[nH]c2c1 ?
FGF22 binding: 0.1; SIRT5 inh: -1.1; UUG fidelity: -7.4; S100A4 inh HTS: -0.4; ERp5 inh: 2.5; PDI inh: 1.3

What do the screens show for `Cc1ccccc1NS(=O)(=O)c1ccc2[nH]c(=O)[nH]c2c1`?
FGF22 binding: 42.9*; SIRT5 inh: -2.1; S100A4 inh HTS: 3.9; ERp5 inh: 3.6; PDI inh: 8.4

How did CC[C@H](C)[C@H](NC(N)=O)C(=O)Nc1ccc(NC(C)=O)cc1 do in these assays?
FGF22 binding: -0.1; SIRT5 inh: 3.1; UUG fidelity: -19.6; S100A4 inh HTS: -4.1; ERp5 inh: 2.2; PDI inh: -0.9

Results for CC[C@H](C)[C@H](NC(N)=O)C(=O)NCCc1ccc(OC)cc1 ?
FGF22 binding: 0.1; SIRT5 inh: -4.2; UUG fidelity: -22.5; S100A4 inh HTS: -3.2; ERp5 inh: 0.8; PDI inh: -1.1

How did CCC(C)C(NC(N)=O)C(=O)Nc1ccc(C(=O)OC)cc1 (stereo unspecified) do in these assays?
FGF22 binding: 43.4*; SIRT5 inh: -4.8; UUG fidelity: 18.6; S100A4 inh HTS: -3.1; ERp5 inh: 2.0; PDI inh: -1.9

How did CC[C@H](C)[C@H](NC(N)=O)C(=O)NCCc1ccc(Cl)cc1 do in these assays?
FGF22 binding: 43.7*; SIRT5 inh: -2.2; UUG fidelity: -5.7; S100A4 inh HTS: 0.6; ERp5 inh: 8.2; PDI inh: 4.0

Taken from the results shown, three compounds:
Results for CN(Cc1ccccc1F)C(=O)c1ccc(NS(=O)(=O)c2ccc3[nH]c(=O)[nH]c3c2)cc1 ?
FGF22 binding: 0.0; SIRT5 inh: 30.7*; UUG fidelity: -1.4; S100A4 inh HTS: 0.4; ERp5 inh: 2.5; PDI inh: -6.0

Results for CCOc1ccccc1NS(=O)(=O)c1ccc2[nH]c(=O)[nH]c2c1 ?
FGF22 binding: 0.1; SIRT5 inh: -1.1; UUG fidelity: -7.4; S100A4 inh HTS: -0.4; ERp5 inh: 2.5; PDI inh: 1.3

What do the screens show for `Cc1ccccc1NS(=O)(=O)c1ccc2[nH]c(=O)[nH]c2c1`?
FGF22 binding: 42.9*; SIRT5 inh: -2.1; S100A4 inh HTS: 3.9; ERp5 inh: 3.6; PDI inh: 8.4
